Target: T1, Recombinant human Syk (GST-Syk kinase fusion protein) (Homo sapiens, UniProt P43405)
T1 construct: made in house
Experiment: Syk Kinase Test (Kinase Glo Luminescence Kinase test)
Type: biochemical
Settings: 1 μM test substance; negative control (no kinase) = 100% inhibition, positive control (no test substance) = 0% inhibition
Protocol: The catalytic activity of the GST-Syk kinase fusion protein was determined using the Kinase Glo® Luminescence Kinase test of Messrs Promega. In this homogeneous test the amount of ATP remaining after the kinase reaction has been carried out is quantified by a luciferin-luciferase reaction using luminescence. The luminescence signal obtained correlates with the amount of ATP still present and thus correlates inversely with the activity of the protein kinase.
The test substances were dissolved in 100% DMSO at a concentration of 10 mM and diluted in DMSO to a concentration of 1 mM. […] GST-Syk was diluted to 6.0 nM in the test buffer and 10 μl of this dilution were used in the kinase test (final concentration of Syk=4 nM in a total volume of 15 μl).
Positive controls are the reaction mixtures that contain no test substance; negative controls are reaction mixtures that contain no kinase. […]
The output file of the “MicroBeta TRILUX” is a text file that contains the well number and measurements obtained. […] Then from this the % inherent value for the measurement of each substance concentration was calculated using an “MS-Excel-VB macro”. […] The IC50 values were calculated from the % inhibition values using “GraphPadPrism” software (Version 5) (GraphPad Software Inc.).

| Structure (SMILES) | % INHB SYK at 1 μM [%] |
| --- | --- |
| O=C1CC(COc2nc(-c3ccc(N4CCOCC4)cc3)cc3ncccc23)CN1 (centres unmarked) [Example 65, 4-[7-(4-morpholin-4-yl-phenyl)-[1,6]naphthyridin-5-yloxymethyl]-pyrrolidin-2-one] | 91.5 |
| O=C1C[C@@H](COc2nc(-c3ccc(N4CCOCC4)cc3)cc3ncccc23)CN1 [Example 84, (R)-4-[7-(4-morpholin-4-yl-phenyl)-[1,6]naphthyridin-5-yloxymethyl]-pyrrolidin-2-one] | 90.1 |
